Reference: US20220008563A1, “RADIOLABELLED AND NONRADIOLABELLED PEGYLATED COMPOUNDS AND USES THEREOF” (The Regents of the University of California, priority 2020, published 2022)

Details: mouse, in vivo, ip

Which clearance route does the source give for “4-O-[^18F]FluoroPEG3-2-(1H-pyrrolo[2,3-c]pyridine-1-yl)pyridine [[^18F]FAZIN3]” here?
Its clearance route is “clear from the liver to the lower GI tract as well as to the urinary bladder”.
